The conditions of this data set: pH 5. The method, then: The absorbance of the solution at 225 nm, which is the wavelength at which enol ethers absorb (Kresge, A. J.; Sagatys, D. S.; Chen, H. L. J. Am. Chem. Soc. 1977, 99, 7228) was measured over time.
The absorbance of the solution at 225 nm was measured as a function of time.

For the substance “glycolic acid ethoxylate(4 units) 4-tert-buty-1,4-cyclohexadiene ether”, the “half-life of enol ether hydrolysis” value was found to be 40 min.
